Read-outs that look alike come from different tables or passages of the source.
Molecular target: T1, human IBAT (Homo sapiens, UniProt Q12908)
T1 construct: expressed in transfected cells; host or cells: Baby hamster kidney (BHK) cells, clone H14
T1 sequence (Q12908 1-348): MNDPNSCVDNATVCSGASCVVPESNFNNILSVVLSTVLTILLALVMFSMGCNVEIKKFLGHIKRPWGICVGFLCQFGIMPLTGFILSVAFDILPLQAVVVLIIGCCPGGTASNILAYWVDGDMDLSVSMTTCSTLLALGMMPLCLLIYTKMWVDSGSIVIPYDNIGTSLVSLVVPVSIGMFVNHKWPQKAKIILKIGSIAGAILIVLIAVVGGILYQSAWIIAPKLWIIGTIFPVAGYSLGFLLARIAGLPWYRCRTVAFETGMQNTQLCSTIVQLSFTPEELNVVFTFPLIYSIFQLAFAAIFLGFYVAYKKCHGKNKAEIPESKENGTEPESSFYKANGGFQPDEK
Experiment: In vitro assay of IBAT-mediated uptake of [14C]-taurocholate (TC) in H14 cells
Assay type: cell-based
Procedure: In Vitro Assay of Compounds that Inhibit IBAT-Mediated Uptake of [^14C]-Taurocholate (TC) in H14 Cells
Baby hamster kidney cells (BHK) transfected with the cDNA of human IBAT (H14 cells) are seeded at 60,000 cells/well in 96 well Top-Count tissue culture plates for assays run within in 24 hours of seeding, 30,000 cells/well for assays run within 48 hours, and 10,000 cells/well for assays run within 72 hours.
On the day of assay, the cell monolayer is gently washed once with 100 μl assay buffer (Dulbecco's Modified Eagle's medium with 4.5 g/L glucose+0.2% (w/v) fatty acid free bovine serum albumin-(FAF)BSA). To each well 50 μl of a two-fold concentrate of test compound in assay buffer is added along with 50 μl of 6 μM [^14C]-taurocholate in assay buffer (final concentration of 3 μM [^14C]-taurocholate). The cell culture plates are incubated 2 hours at 37° C. prior to gently washing each well twice with 100 μl 4° C. Dulbecco's phosphate-buffered saline (PBS) containing 0.2% (w/v) (FAF)BSA. The wells are then gently washed once with 100 μl 4° C. PBS without (FAF)BSA. To each 200 μl of liquid scintillation counting fluid is added, the plates are heat sealed and shaken for 30 minutes at room temperature prior to measuring the amount of radioactivity in each well on a Packard Top-Count instrument.

IC50 (read-out: Human TC IC50) [nM] | Structure (SMILES) | IC50 (Human TC IC50) [nM]
1300 | CCCCC1(CC)CS(=O)(=O)c2ccc(NC(=O)OC(C)(C)C)cc2C(c2ccccc2)C1O (centres unmarked) [Example 119] | –
– | CCCCC1(CCCC)CS(=O)(=O)c2ccc(N(C)C)cc2C(c2cccc(CC(=O)O)c2)C1O (centres unmarked) [Example 1102] | 7

— patent US6784201B2, “Benzothiepines having activity as inhibitors of ileal bile acid transport and taurocholate uptake” (G.D. Searle & Company, priority 1994, dated 2004)
